Test results taken from article PMC9836055 (Process biochemistry (Barking, London, England), 2022).

Molecular target: Lsa45 (Leptospiral surface adhesin of 45 kDa) (Leptospira interrogans, UniProt Q72UC8)
Settings: PBS, 37 °C, 0.6 mg/mL enzyme

Q: With O=C(Cc1cccs1)N[C@@H]1C(=O)N2C(C(=O)O)=C(/C=C/c3ccc([N+](=O)[O-])cc3[N+](=O)[O-])CS[C@H]12 [nitrocefin] as the compound, how does the Km read?
A: The Km was 235 ± 6.4 µM.
